These results are taken from ChEMBL document CHEMBL1124432, “(6R,6S)-5,8,10-trideaza-5,6,7,8-tetrahydrofolate and 6(R,6S)-5,8,10-trideaza-5,6,7,8-tetrahydropteroyl-L-ornithine as potential antifolates and antitumor agents” (J Med Chem, 1989).

One may read the Km as the concentration of substrate that gives half-maximal velocity.

Substrate in this series: CN(Cc1cnc2nc(N)nc(N)c2n1)c1ccc(C(=O)N[C@@H](CCC(=O)O)C(=O)O)cc1
In words: The apparent Km of compound as a substrate for partially purified mouse liver Folyl-polyglutamate synthase.

B1: Folylpolyglutamate synthase, mitochondrial (Mus musculus), P48760 (protein)
chain: MSWARSRLCSTLSLAAVSARGATTEGAARRGMSAWPAPQEPGMEYQDAVRTLNTLQTNASYLEQVKRQRSDPQAQLEAMEMYLARSGLQVEDLNRLNIIHVTGTKGKGSTCAFTERILRNYGLKTGFFSSPHMVQVRERIRINGKPISPELFTKHFWCLYNQLEEFKDDSHVSMPSYFRFLTLMAFHVFLQEKVDLAVVEVGIGGAFDCTNIIRKPVVCGVSSLGIDHTSLLGDTVEKIAWQKGGIFKPGVPAFTVVQPEGPLAVLRDRAQQIGCPLYLCPPLEALEEVGLPLSLGLEGAHQRSNAALALQLAHCWLERQDHQDIQELKVSRPSIRWQLPLAPVFRPTPHMRRGLRDTVWPGRTQILQRGPLTWYLDGAHTTSSVQACVHWYRQSLERSKRTDGGSEVHILLFNSTGDRDSAALLKLLQPCQFDYAVFCPNVTEVSSIGNADQQNFTVTLDQVLLRCLQHQQHWNGLAEKQASSNLWSSCGPDPAGPGSLLLAPHPPQPTRTSSLVFSCISHALLWISQGRDPIFQPQSLPRNLLNHPTANSGASILREAAAIHVLVTGSLHLVGGVLKLLDPSMSQ
B1: the Km was 165 µM.
